One assay deals with IRAK4 kinase (Homo sapiens, UniProt Q9NWZ3). Put plainly: Compound inhibition of IRAK4 kinase activity (fluorescence microfluidic mobility shift assay). Conditions: read-out: IRAK4 IC50, 10 μM ATP, 6 nM IRAK4 kinase. As for the experimental part:
Based on the experimental method of fluorescence microfluidic mobility shift assay, the IC50 value of the compound for competitive binding of ATP to IRAK4 kinase was determined. The initial detection concentration of the compound was 10 μM, which was 4-fold serially diluted to 0.38 nM and assayed in duplicate. In this case, commercially available staurosporine was the standard control for the assay.
1) IRAK4 kinase was dissolved in kinase buffer (50 mM HEPES pH 7.5, 10 mM MgCl2, 2 mM DDT, and 0.01% Brij-35) at a final concentration of 6 nM.
2) The substrate peptide FAM-P8 and ATP were dissolved in the above kinase buffer, and the final concentrations of the substrate peptide FAM-P8 and ATP for IRAK4 were 3 μM and 10 μM, respectively.
3) Compound dilution: The compound was first diluted to 50 μM, and then 4-fold serially diluted with DMSO. In this case, the solution without compound and kinase served as the blank control, corresponding to the “minimum value” shown below; the solution without compound but containing kinase, adenosine 5′-triphosphate disodium salt hydrate, DMSO, and the buffer served as the positive control, corresponding to the “maximum value” shown below.
4) Kinase reaction and termination: 10 μL of the kinase buffer was added to a 384-well plate containing 5 μL of the compound to be tested, and the mixture was incubated at room temperature for 10 minutes; another 10 μL of buffer containing the substrate peptide and adenosine 5′-triphosphate disodium salt hydrate was added to the 384-well plate, and after incubation at 28° C. for 1 hour, 25 μL of termination solution (100 mM HEPES pH 7.5, 50 mM EDTA, 0.2% Coating Reagent #3, and 0.015% Brij-35) was added to each well to terminate the reaction.
5) Data reading: CaliperEZ Reader II instrument was used to read the conversion rate data. Setting conditions: downstream voltage as −500 V, upstream voltage as −2250 V, base pressure as −0.5 PSI, and screening pressure as −1.2 PSI.
6) Data calculation: the conversion rate data was copied from CaliperEZ Reader II, and the conversion rate was converted into inhibition rate data. The calculation formula is as follows: Inhibition percentage (%)=(maximum value−conversion rate)/(maximum value−minimum value)*100%
IC50 values were fitted with XLFit excel add-in version 5.4.0.8.

Sequences of proteins named here, by UniProt entry; tags and fusion partners are left off.
UniProt Q9NWZ3, whole entry: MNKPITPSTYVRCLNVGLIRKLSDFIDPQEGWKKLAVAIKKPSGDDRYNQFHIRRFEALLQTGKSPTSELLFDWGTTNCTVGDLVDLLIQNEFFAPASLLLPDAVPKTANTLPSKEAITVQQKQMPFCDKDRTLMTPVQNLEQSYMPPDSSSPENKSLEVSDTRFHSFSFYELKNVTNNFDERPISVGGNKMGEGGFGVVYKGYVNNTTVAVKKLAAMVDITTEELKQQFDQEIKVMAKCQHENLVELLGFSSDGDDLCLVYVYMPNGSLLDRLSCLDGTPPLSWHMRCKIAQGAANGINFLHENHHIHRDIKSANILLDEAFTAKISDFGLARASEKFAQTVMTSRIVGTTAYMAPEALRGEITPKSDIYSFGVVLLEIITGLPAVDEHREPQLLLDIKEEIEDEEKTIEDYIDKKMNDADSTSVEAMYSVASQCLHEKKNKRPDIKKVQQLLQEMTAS

The subject of another assay is THP-1 cells. Put plainly: LPS-stimulated cytokine (TNFα) release in THP-1. The conditions noted are these: read-out: Inhibition IC50 (nM) of cytokines (TNFα) against LPS-stimulated inflammatory responses in THP-1 cells, LPS 100 ng/mL, 5 hours, TNF-α ELISA. The procedure:
THP-1 cells were cultured in suspension in RPMI 1640 complete medium (containing 10% serum, 1% penicillin-streptomycin, and 55 μM β-mercaptoethanol). THP-1 cells were collected, centrifuged at 350×g at room temperature to discard the supernatant, and resuspended in RPMI 1640 complete medium to a concentration of 2×10^6 cells per mL. THP-1 cells were spread into a 96-well plate at a concentration of 2×10^5 cells per well, and different concentrations of the compound to be tested were added thereto. The plate was incubated in a 37° C. cell culture incubator with 5% CO2 for 60 minutes. 50 μL of LPS at a final concentration of 100 ng/mL was added to a 96-well plate, and incubated in a 37° C. cell culture incubator for 5 hours. The cell culture plate was then taken out from the incubator, and centrifuged at 350×g at low temperature for 5 minutes to collect 150 μL of the supernatant. Referring to the instructions in the Human TNF-α Duoset ELISA Kit, the level of TNF-α in the cell culture supernatant was detected.
Data on the inhibitory activity of cytokines (TNFα) against LPS-stimulated inflammatory responses in THP-1 cells are shown in Tables 3 and 4.
On the technique in general: An ELISA detects its analyte on a solid surface through an enzyme-linked reagent.

The target of assay [1] is IRAK4 protein in THP-1 cells (Homo sapiens, UniProt Q9NWZ3). Put plainly: IRAK4 protein degradation in THP-1 induced by PROTAC (Western Blot). Conditions: GAPDH internal reference. The procedure:
3.1. Based on the experimental method of immunoblot, i.e., Western Blot, THP-1 cell samples processed by gel electrophoresis were stained with specific antibodies, and the degradation activity of the compounds on the IRAK4 protein in THP-1 cells was determined by analyzing the position of the staining and the depth of the staining. The detection concentrations of the compounds were 0 μM, 0.3 μM, 1 μM, and 3 μM, and the compounds were used to treat the cells for 8 hours, 16 hours, 24 hours, and 48 hours. In this case, glyceraldehyde-3-phosphate dehydrogenase (GAPDH) was the internal reference protein for the assay.
THP-1 cells were spread into a 6-well plate at a density of 1.5×10^6 cells per mL, and incubated in a 37° C. cell culture incubator with 5% CO2 for 2 hours. The compound was diluted with DMSO to 0.6 mM, 0.2 mM, and 0.06 mM, respectively. 10 μL of compound solution was added to the corresponding wells, and the plate was incubated in the incubator for 16 hours, 24 hours, and 48 hours, respectively. The drug-treated THP-1 cells were collected from the wells, added with 120 μL of RIPA lysis buffer containing protease inhibitor, phosphatase inhibitor cocktail 2, and phosphatase inhibitor cocktail 3, and lysed on wet ice for 30 minutes. The cell lysate was then centrifuged at low temperature and high speed for 5 minutes, and the supernatant was collected. Referring to the instructions in the Pierce™ BCA Protein Assay Kit, the cell samples were tested for protein concentration.
The samples were adjusted to the same concentration using lysis buffer and NuPAGE® LDS sample buffer containing 1 M DTT. The samples were heated at 95° C. for 5 minutes and centrifuged at low temperature and high speed. 20 μL of prepared protein sample and 4 μL of PageRuler Prestained Protein Ladder were added to the gel wells. The mixture was electrophoresed at a voltage of 80 V for 0.5 hours, and then electrophoresed for another 1.5 hours after the voltage was adjusted to 120 V. The gel was removed and proteins in the gel were transferred to IBlot™ 2 Transfer Stack at a voltage of 20V. After successful membrane transfer, the bands were cut out at 65 kDa to 40 kDa and 40 kDa to 30 kDa, respectively. The membrane was blocked with 5% non-fat milk at room temperature for 1 hour. The membrane was washed three times with 1×TBST, and incubated with IRAK4 antibody working solution at 4° C. overnight. The IRAK4 antibody working solution was discarded, and the membrane was washed three times with 1×TBST. After the corresponding membrane was incubated with Goat Anti-Rabbit IgG H&L (HRP) working solution and Goat Anti-Mouse IgG H&L (HRP) working solution at room temperature for 1 hour, the antibody working solutions were discarded, and the membrane was washed three times with 1×TBST. Referring to the instructions in the SuperSignal™ West Femto Maximum Sensitivity Substrate Kit, the reagents in the kit were mixed in equal volume proportions to prepare a luminescent mixture, and the membrane was incubated for 1 minute and removed for exposure.
WB assay: The results 24 hours after administration at 1 μM were divided into estimated <25%, <50%, <75%, and <100%.
(A western blot detects proteins with antibodies after separation by electrophoresis.)

The structures appear in SMILES notation. pIC50: −log10 of the molar value. Read-outs that look alike come from different tables or passages of the source.

What is called pIC50 is −log10 of the IC50, conventionally taken in molar units. Broadly, the IC50 is the concentration that gives 50% inhibition.

With `COc1cc2nn(CCN3CCN(CC(=O)N4CCC5(CCC(C(=O)N[C@H](C(=O)N6C[C@H](O)C[C@H]6C(=O)N[C@@H](C)c6ccc(-c7scnc7C)cc6)C(C)(C)C)CC5)CC4)C3=O)cc2cc1NC(=O)c1cccc(C(F)(F)F)n1`, the pIC50 on IRAK4 kinase (Table 1) and on IRAK4 kinase (Table 2) was greater than 7.00 throughout. In the assay with THP-1 cells (Table 4), the IC50 fell in the range of 1000 to 10000 nM.

Turning to `COc1cc2nn(CCN3CCC(OCC#Cc4cccc5c4C(=O)N(C4CCC(=O)NC4=O)C5=O)CC3)cc2cc1NC(=O)c1cccc(C(F)(F)F)n1` (stereo not shown), the pIC50 at IRAK4 kinase (Table 2) was greater than 7.00. Moreover, in assay [1] (Table 6, estimated bins), the “Western Blot results 24 hours after administration at a drug concentration of 1 μM” value (“Western Blot results 24 hours” below) is reported as less than 25%.

`COc1cc2c(cc1NC(=O)c1cccc(C(F)(F)F)n1)CN(CCC(C)(C)C(=O)N1CCC3(CC1)CCN(c1cnc(C(=O)N[C@H](C(=O)N4C[C@H](O)C[C@H]4C(=O)N[C@@H](C)c4ccc(-c5scnc5C)cc4)C(C)(C)C)cn1)CC3)C2=O`: at IRAK4 kinase (Table 2), the pIC50 is greater than 7.00. In addition, in the assay with THP-1 cells (Table 4), the IC50 was in the range of 1000 to 10000 nM.

In the case of `COc1cc2c(cc1NC(=O)c1cccc(C(F)(F)F)n1)CN(CCC(C)(C)C(=O)N1CC3(CC(CC(=O)N[C@H](C(=O)N4C[C@H](O)C[C@H]4C(=O)N[C@@H](C)c4ccc(-c5scnc5C)cc4)C(C)(C)C)C3)C1)C2=O`, the pIC50 on IRAK4 kinase (Table 1) and on IRAK4 kinase (Table 2) was 6.00 to 7.00 in each case. The IC50 in the assay with THP-1 cells (Table 3) and with THP-1 cells (Table 4) was 100 to 1000 nM in each case. The “Western Blot results 24 hours” value in assay [1] (Table 5, estimated bins) is less than 25%; in assay [1] (Table 6, estimated bins) it was less than 25%.

Take `O=C1CCC(N2C(=O)c3cccc(NCCOCCOCCN4Cc5cc(NC(=O)c6cccc(C(F)(F)F)n6)c(Br)cc5C4=O)c3C2=O)C(=O)N1` (stereo not shown): the pIC50 at IRAK4 kinase (Table 1) and at IRAK4 kinase (Table 2) was 5.00 to 6.00 in each case.

For `COc1cc2nn(CCN3CCN(CC(=O)N4CCC5(CC4)CC(N[C@H](C(=O)N4C[C@H](O)C[C@H]4C(=O)N[C@@H](C)c4ccc(-c6scnc6C)cc4)C(C)(C)C)C5)C3=O)cc2cc1NC(=O)c1cccc(C(F)(F)F)n1`, the pIC50 at IRAK4 kinase (Table 2) is greater than 7.00. Also, the “Western Blot results 24 hours” value in assay [1] (Table 6, estimated bins) is given as less than 25%.

As to `COc1cc2nn(CCN3CCN(CC(=O)N4CCC5(CC4)CN(c4cccc6c4C(=O)N(C4CCC(=O)NC4=O)C6=O)C5)C3=O)cc2cc1NC(=O)c1cccc(C(F)(F)F)n1` (stereo not shown), the negative logarithm of the IC50 (pIC50) at IRAK4 kinase (Table 1) and at IRAK4 kinase (Table 2) was 6.00 to 7.00 throughout. Moreover, the IC50 with THP-1 cells (Table 3) and in the assay with THP-1 cells (Table 4) was 1000 to 10000 nM each time.

As for `COc1cc2nn(CCN3CCN(CC(=O)N4CCC5(CC4)CC(C(=O)N[C@H](C(=O)N4C[C@H](O)C[C@H]4C(=O)N[C@@H](C)c4ccc(-c6scnc6C)cc4)C(C)(C)C)C5)C3=O)cc2cc1NC(=O)c1cccc(C(F)(F)F)n1`, the pIC50 on IRAK4 kinase (Table 1) and on IRAK4 kinase (Table 2) was 6.00 to 7.00 in each case. In addition, the IC50 with THP-1 cells (Table 3) and with THP-1 cells (Table 4) was 1000 to 10000 nM throughout.

With `COc1cc2c(cc1NC(=O)c1cccc(C(F)(F)F)n1)CN(CCN1CCN(CC(=O)N3CC4(CC(N[C@H](C(=O)N5C[C@H](O)C[C@H]5C(=O)N[C@@H](C)c5ccc(-c6scnc6C)cc5)C(C)(C)C)C4)C3)CC1)C2=O`, the pIC50 at IRAK4 kinase (Table 2) was 6.00 to 7.00. In assay [1] (Table 6, estimated bins), the “Western Blot results 24 hours” value is less than 25%.

`COc1cc2nn(CCN3CCN(CC(=O)N4CC5(CC(CC(=O)N[C@H](C(=O)N6C[C@H](O)C[C@H]6C(=O)N[C@@H](C)c6ccc(-c7scnc7C)cc6)C(C)(C)C)C5)C4)C3=O)cc2cc1NC(=O)c1cccc(C(F)(F)F)n1`: the pIC50 at IRAK4 kinase (Table 1) and on IRAK4 kinase (Table 2) was greater than 7.00 each time. Further, the half-inhibitory concentration (IC50) in the assay with THP-1 cells (Table 3) and in the assay on THP-1 cells (Table 4) was 1000 to 10000 nM each time.
